Tested on: cell growth
Assay: Comparison of cross-specific antibody to Cetuximab, MTT cell viability
Type: cell-based
Settings: MTT 72 hrs

With Cetuximab [C225] the “reduction in cell growth” value (antibody alone, concentration recommended for C225 (20 ug/ml and 40 ug/ml)) was “no significant effect” and the “reduction in cell growth in comparison to C225 and isotype control antibody” value (antibody in combination with cpt-11 5 μM) was “no effect”.
